{
  "sequences": {"note": "Sequences of proteins named here, by UniProt entry; tags and fusion partners are left off.", "UniProt Q12809, whole entry": "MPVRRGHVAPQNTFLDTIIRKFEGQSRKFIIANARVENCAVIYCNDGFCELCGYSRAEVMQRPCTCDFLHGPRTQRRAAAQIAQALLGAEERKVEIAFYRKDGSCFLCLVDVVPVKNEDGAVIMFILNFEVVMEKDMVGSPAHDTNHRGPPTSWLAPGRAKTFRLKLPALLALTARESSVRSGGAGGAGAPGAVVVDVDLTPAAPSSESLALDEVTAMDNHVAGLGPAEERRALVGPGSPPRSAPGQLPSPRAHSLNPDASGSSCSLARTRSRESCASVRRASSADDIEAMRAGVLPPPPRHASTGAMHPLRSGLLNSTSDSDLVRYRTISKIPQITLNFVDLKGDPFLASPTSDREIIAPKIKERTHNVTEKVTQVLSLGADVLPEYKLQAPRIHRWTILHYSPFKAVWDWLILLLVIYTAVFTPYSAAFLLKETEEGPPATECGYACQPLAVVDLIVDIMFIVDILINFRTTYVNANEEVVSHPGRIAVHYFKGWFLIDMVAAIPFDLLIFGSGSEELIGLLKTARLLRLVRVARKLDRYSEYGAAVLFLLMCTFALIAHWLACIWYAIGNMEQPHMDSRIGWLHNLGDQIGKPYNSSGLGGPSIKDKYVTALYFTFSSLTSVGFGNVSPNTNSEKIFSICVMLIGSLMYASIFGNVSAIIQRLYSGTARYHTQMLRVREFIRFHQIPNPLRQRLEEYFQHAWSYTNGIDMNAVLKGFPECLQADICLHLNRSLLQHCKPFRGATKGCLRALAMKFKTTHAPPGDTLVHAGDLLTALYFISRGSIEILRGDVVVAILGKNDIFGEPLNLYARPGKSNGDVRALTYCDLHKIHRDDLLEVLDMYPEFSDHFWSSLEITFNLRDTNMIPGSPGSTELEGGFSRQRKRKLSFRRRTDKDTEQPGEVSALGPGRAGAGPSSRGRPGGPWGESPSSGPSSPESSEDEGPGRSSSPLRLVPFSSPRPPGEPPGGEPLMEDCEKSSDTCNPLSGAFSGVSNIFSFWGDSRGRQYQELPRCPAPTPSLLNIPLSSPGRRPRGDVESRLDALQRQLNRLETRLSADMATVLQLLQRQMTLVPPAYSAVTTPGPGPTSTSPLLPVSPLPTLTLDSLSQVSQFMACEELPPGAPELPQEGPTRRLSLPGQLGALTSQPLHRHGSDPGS"},
  "source": "patent US20240317736A1",
  "about": "“DEUTERATED DERIVATIVE AS ATX INHIBITOR, AND APPLICATION THEREOF” (Xizang Haisco Pharmaceutical Co., Ltd., priority 2020, published 2024)",
  "key": {"[1]": {"assay": "Pharmacokinetic test in mice", "experimental": "Test objective: the pharmacokinetic characteristics and bioavailability of test compounds in mice were evaluated.\nTest animals: thirty-six C57 male mice, about 25 g, 6-8 weeks old, purchased from Chengdu Ddossy Experimental Animals Co., Ltd., with the production license number of SCXK (CHUAN) 2020-030.\nVehicle for intravenous administration: 5% DMA+5% Solutol+90% Saline; vehicle for intragastric administration: 0.5% MC\nBefore and after the administration, 0.06 mL of blood was taken from the orbits under isoflurane anaesthesia and placed in an EDTAK2 centrifuge tube. The blood was centrifuged at 5000 rpm at 4° C. for 10 min, and plasma was collected. Time points for blood collection: 0 min, 5 min, 15 min, 30 min, 1 h, 2 h, 4 h, 6 h, 8 h, 10 h and 24 h. Before analysis and detection, all plasma samples were stored at −80° C."}, "[2]": {"molecular_target": "hERG potassium channel (Homo sapiens, UniProt Q12809)"}, "[3]": {"assay": "Pharmacokinetic test in monkeys", "experimental": "Test objective: the pharmacokinetic characteristics and bioavailability of test compounds in monkeys were evaluated.\nTest animals: twelve male Cynomolgus macaques, 2.4-5.9 kg, 3-5.5 years old, purchased from Suzhou Xishan Zhongke Laboratory Animal Co., Ltd., with the production license number of SCXK (SU) 2018-0001.\nVehicle for intravenous administration: 5% DMSO+5% Solutol+90% Saline; • vehicle for intragastric administration: 1% DMSO+1% Solutol+98% (0.5% CMC-Na)\n(§1) Before and after the administration, 1.0 mL of blood was taken from the veins of the forelimbs and placed in an EDTAK2 centrifuge tube. The blood was centrifuged at 5000 rpm at 4° C. for 10 min, and plasma was collected. Time points for blood collection: 0 min, 5 min, 15 min, 30 min, 1 h, 2 h, 4 h, 6 h, 8 h, 10 h, 12 h and 24 h. Before analysis and detection, all plasma samples were stored at −80° C."}, "[4]": {"assay": "Pharmacokinetic test in dogs", "experimental": "Test objective: the pharmacokinetic characteristics and bioavailability of test compounds in dogs were evaluated.\nTest animals: twelve male beagles, 8-10 kg, 0.5-1.5 years old, purchased from Beijing Marshall Biotechnology Co. Ltd., with the production license number of SCXK (JING) 2016-001.\nVehicle for intravenous administration: 5% DMSO+5% Solutol+90% Saline; • vehicle for intragastric administration: 1% DMSO+1% Solutol+98% (0.5% MC);\nas §1"}, "[5]": {"assay": "Pharmacokinetic test in rats", "experimental": "Test objective: test compounds were given to SD rats via single-dose intravenous and intragastric administration, the concentrations of the test compounds in plasma of rats were measured, and the pharmacokinetic characteristics and bioavailability of test compounds in rats were evaluated.\nTest animals: male SD rats, about 220 g, 6-8 weeks old, six rats/compound, purchased from Chengdu Ddossy Experimental Animals Co., Ltd.\nTest method: on the day of the test, 6 SD rats were randomly grouped according to their body weights. The rats were fasted with water available for 12-14 h one day before the administration, and were fed 4 h after the administration. The administration was performed according to Table 5.\nBefore and after the administration, 0.1 mL of blood was taken from the orbits of the rats under isoflurane anaesthesia, and placed in an EDTAK2 centrifuge tube. Centrifugation was performed at 5000 rpm at 4° C. for 10 min, and plasma was collected.\nTime points for sample collection in group G1 comprise 0 min, 5 min, 15 min, 30 min, 1 h, 2 h, 4 h, 6 h, 8 h and 24 h.\nTime points for sample collection in group G2 comprise 0 min, 15 min, 30 min, 1 h, 2 h, 4 h, 6 h, 8 h and 24 h.\n30 μL of each of plasma samples, standard curve samples and quality control samples was taken, and 200 μL of acetonitrile solution containing an internal standard was added, and the resulting mixture was homogeneously mixed by vortex and centrifuged at 4° C. at 12000 rpm for 10 min. 170 μL of the supernatant was taken to a 96-well plate, and LC-MS/MS analysis was performed, wherein the sample size was 2 μL.\nThe main pharmacokinetic parameters were analyzed by a non-compartmental model using WinNonlin 8.0 software."}},
  "note": "pIC50: −log10 of the molar value.",
  "data": [
    {"smiles": "CCc1nn2cc(F)c(N3CCN(CC(=O)N4CC(O)C4)CC3)cc2c1N(C)c1nc(-c2ccc(F)cc2)c(C#N)s1", "values": [
      {"measurement": "AUC", "setting": "[1]; IV 1 mg/kg", "value": 1594, "unit": "ng·h/mL"},
      {"measurement": "C0 or Cmax", "setting": "[1]; IV 1 mg/kg", "value": 1383, "unit": "ng/mL"},
      {"measurement": "T1/2", "setting": "[1]; IV 1 mg/kg", "value": 1.78, "unit": "h"},
      {"measurement": "AUC", "setting": "[1]; PO 10 mg/kg", "value": 6768, "unit": "ng·h/mL"},
      {"measurement": "C0 or Cmax", "setting": "[1]; PO 10 mg/kg", "value": 928, "unit": "ng/mL"},
      {"measurement": "T1/2", "setting": "[1]; PO 10 mg/kg", "value": 2.14, "unit": "h"},
      {"measurement": "Tmax", "setting": "[1]; PO 10 mg/kg", "value": 2.00, "unit": "h"},
      {"measurement": "F %", "setting": "[1]; PO 10 mg/kg vs IV 1 mg/kg", "value": 42.5, "unit": "%"},
      {"measurement": "pIC50", "setting": "[2]", "value": 5.03},
      {"measurement": "AUC", "setting": "[3]; IV 1 mg/kg", "value": "1453 ± 374", "unit": "ng·h/mL"},
      {"measurement": "C0 or Cmax", "setting": "[3]; IV 1 mg/kg", "value": "1002 ± 92", "unit": "ng/mL"},
      {"measurement": "T1/2", "setting": "[3]; IV 1 mg/kg", "value": "1.74 ± 0.23", "unit": "h"},
      {"measurement": "AUC", "setting": "[3]; PO 5 mg/kg", "value": "2624 ± 23", "unit": "ng·h/mL"},
      {"measurement": "C0 or Cmax", "setting": "[3]; PO 5 mg/kg", "value": "516 ± 60", "unit": "ng/mL"},
      {"measurement": "T1/2", "setting": "[3]; PO 5 mg/kg", "value": "3.18 ± 1.04", "unit": "h"},
      {"measurement": "Tmax", "setting": "[3]; PO 5 mg/kg", "value": "1.33 ± 0.58", "unit": "h"},
      {"measurement": "AUC", "setting": "[4]; IV 1 mg/kg", "value": "6850 ± 1812", "unit": "ng·h/mL"},
      {"measurement": "C0 or Cmax", "setting": "[4]; IV 1 mg/kg", "value": "1374 ± 72", "unit": "ng/mL"},
      {"measurement": "T1/2", "setting": "[4]; IV 1 mg/kg", "value": "5.68 ± 1.0", "unit": "h"},
      {"measurement": "AUC", "setting": "[4]; PO 2 mg/kg", "value": "9124 ± 1303", "unit": "ng·h/mL"},
      {"measurement": "C0 or Cmax", "setting": "[4]; PO 2 mg/kg", "value": "1081 ± 149", "unit": "ng/mL"},
      {"measurement": "T1/2", "setting": "[4]; PO 2 mg/kg", "value": "7.25 ± 0.45", "unit": "h"},
      {"measurement": "Tmax", "setting": "[4]; PO 2 mg/kg", "value": "2.00 ± 0.0", "unit": "h"},
      {"measurement": "F %", "setting": "[4]; PO 2 mg/kg vs IV 1 mg/kg", "value": "66.6 ± 9.5", "unit": "%"},
      {"measurement": "AUC", "setting": "[5]; IV 1 mg/kg", "value": "1491 ± 203", "unit": "ng·h/mL"},
      {"measurement": "C0 or Cmax", "setting": "[5]; IV 1 mg/kg", "value": "870 ± 25", "unit": "ng/mL"},
      {"measurement": "T1/2", "setting": "[5]; IV 1 mg/kg", "value": "2.69 ± 0.48", "unit": "h"},
      {"measurement": "Tmax", "setting": "[5]; PO 5 mg/kg", "value": "2.83 ± 2.8", "unit": "h"},
      {"measurement": "F %", "setting": "[5]; PO 5 mg/kg vs IV 1 mg/kg", "value": "29.3 ± 8.0", "unit": "%"}
    ]}
  ]
}
